Assay: Slurry experiments of Form H in water/DMSO (form map)
Conditions: 60° C., 1:1 (50% water) to 1:4 DMSO:Water (80% water)

**Q.** For `C[C@@H]1CC[C@@H](Nc2nc(NC(C)(C)C)ncc2C(N)=O)C[C@H]1O` [Form A, 2-(tert-butylamino)-4-((1R,3R,4R)-3-hydroxy-4-methylcyclohexylamino)-pyrimidine-5-carboxamide], which “form stability in water/DMSO” value is on record?
**A.** The value was “favored”.

— patent publication US11241430B2, “Solid forms of 2-(tert-butylamino)-4-((1R,3R,4R)-3-hydroxy-4-methylcyclohexylamino)-pyrimidine-5-carboxamide, compositions thereof and methods of their use” (Signal Pharmaceuticals, LLC, priority 2014, dated 2022)
